# Measured values: BindingDB's records for doi:10.1016/0960-894X(96)00231-4 (1996)
# Experiment: Stimulation of mitogenesis in Dopamine receptor D3 transfected CHO p-5 cells
smiles,measurement,value
"COc1c(C(=O)NCCN2CCN(c3cccc(Cl)c3Cl)CC2)cc(Br)c2ccccc12 [4-Bromo-1-methoxy-naphthalene-2-carboxylic acid {2-[4-(2,3-dichloro-phenyl)-piperazin-1-yl]-ethyl}-amide]",EC50,13 nM
